The results in this text go back to patent US7202260B2, “VEGFR-2 and VEGFR-3 inhibitory anthranilamide pyridones” (Schering AG, priority 2003, dated 2007).

Chains of the proteins cited; added tags and fusions are not shown. Residues count along the entry.
UniProt P35968, 20-1356 limits assumed: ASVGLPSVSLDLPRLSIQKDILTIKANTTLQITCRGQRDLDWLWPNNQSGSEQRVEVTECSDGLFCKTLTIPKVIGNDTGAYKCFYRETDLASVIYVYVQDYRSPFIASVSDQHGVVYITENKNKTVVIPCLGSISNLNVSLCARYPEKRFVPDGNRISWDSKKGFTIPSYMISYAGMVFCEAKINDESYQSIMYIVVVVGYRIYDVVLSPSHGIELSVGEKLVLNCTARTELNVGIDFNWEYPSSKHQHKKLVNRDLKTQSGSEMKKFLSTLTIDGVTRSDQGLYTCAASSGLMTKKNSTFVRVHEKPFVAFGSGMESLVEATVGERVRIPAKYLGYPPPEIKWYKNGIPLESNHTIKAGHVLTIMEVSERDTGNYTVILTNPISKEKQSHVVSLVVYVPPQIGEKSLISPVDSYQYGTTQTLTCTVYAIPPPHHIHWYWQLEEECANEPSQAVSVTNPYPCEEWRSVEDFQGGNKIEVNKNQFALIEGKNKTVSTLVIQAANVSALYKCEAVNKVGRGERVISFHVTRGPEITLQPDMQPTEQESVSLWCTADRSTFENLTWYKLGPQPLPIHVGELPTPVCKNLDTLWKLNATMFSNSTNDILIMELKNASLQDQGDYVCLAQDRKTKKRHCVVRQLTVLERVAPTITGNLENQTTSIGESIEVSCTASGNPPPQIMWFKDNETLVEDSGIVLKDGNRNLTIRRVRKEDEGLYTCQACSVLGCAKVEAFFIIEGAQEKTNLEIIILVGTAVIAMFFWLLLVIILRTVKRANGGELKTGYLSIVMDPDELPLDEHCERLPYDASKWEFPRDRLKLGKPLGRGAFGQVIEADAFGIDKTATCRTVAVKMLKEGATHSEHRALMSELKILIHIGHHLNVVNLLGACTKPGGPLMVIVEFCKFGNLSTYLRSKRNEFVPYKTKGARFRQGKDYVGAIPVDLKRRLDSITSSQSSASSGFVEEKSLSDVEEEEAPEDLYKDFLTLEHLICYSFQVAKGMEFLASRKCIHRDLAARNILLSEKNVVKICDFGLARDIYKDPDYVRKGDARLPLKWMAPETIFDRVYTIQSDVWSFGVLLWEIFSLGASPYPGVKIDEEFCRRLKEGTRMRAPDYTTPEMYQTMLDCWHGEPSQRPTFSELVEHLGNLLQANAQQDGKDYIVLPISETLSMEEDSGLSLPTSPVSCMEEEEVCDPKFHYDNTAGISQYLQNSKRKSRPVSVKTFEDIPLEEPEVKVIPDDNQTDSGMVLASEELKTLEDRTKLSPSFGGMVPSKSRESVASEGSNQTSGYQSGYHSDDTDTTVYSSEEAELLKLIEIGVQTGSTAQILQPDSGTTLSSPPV
UniProt P08684, whole entry: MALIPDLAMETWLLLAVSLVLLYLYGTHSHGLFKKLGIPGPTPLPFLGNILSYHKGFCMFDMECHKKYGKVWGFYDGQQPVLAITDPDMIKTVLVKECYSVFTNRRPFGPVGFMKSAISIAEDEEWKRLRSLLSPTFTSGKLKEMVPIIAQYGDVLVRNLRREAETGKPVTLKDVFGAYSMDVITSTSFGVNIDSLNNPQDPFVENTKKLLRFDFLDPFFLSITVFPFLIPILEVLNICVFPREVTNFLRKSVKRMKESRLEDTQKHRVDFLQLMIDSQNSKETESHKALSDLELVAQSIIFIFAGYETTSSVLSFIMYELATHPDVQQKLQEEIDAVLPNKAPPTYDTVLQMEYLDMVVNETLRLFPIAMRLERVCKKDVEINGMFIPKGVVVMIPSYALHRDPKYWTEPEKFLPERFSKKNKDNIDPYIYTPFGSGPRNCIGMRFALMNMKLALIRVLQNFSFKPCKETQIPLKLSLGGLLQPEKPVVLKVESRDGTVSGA

One data set has as its target VEGFR II (KDR) (Homo sapiens, UniProt P35968). As to the kind of experiment: Inhibition of the KDR kinase activity (33P-ATP, poly-(Glu4Tyr) filter assay). The conditions noted are these: read-out: VEGFR II (KDR) kinase-inhibition IC50. Here is the method: • Stock Solutions • Stock solution A: 3 mmol of ATP in water, pH 7.0 (−70° C.) • Stock solution B: g-33P-ATP 1 mCi/100 μl • Stock solution C: poly-(Glu4Tyr) 10 mg/ml in water • Solution for Dilutions • Substrate solvent: 10 mmol of DTT, 10 mmol of manganese chloride, 100 mmol of magnesium chloride • Enzyme solution: 120 mmol of tris/HCl, pH 7.5, 10 μM of sodium vanadium oxide Sample Application 1 Inhibition of the KDR- and FLT-1 Kinase Activity in the Presence of the Compounds According to the Invention
In a microtiter plate (without protein binding) that tapers to a point, 10 μl of substrate mix (10 μl of volume of ATP stock solution A+25 μCi of g-33P-ATP (about 2.5 μl of stock solution B)+30 μl of poly-(Glu4Tyr) stock solution C+1.21 ml of substrate solvent), 10 μl of inhibitor solution (substances corresponding to the dilutions, 3% DMSO in substrate solvent as a control) and 10 μl of enzyme solution (11.25 μg of enzyme stock solution (KDR, FLT-1 or FLT-4 kinase) are added at 4° C. in 1.25 ml of enzyme solution (dilute). It is thoroughly mixed and incubated for 10 minutes at room temperature. Then, 10 μl of stop solution (250 mmol of EDTA, pH 7.0) is added, mixed, and 10 μl of the solution is transferred to a P 81 phosphocellulose filter. […] The filter paper is dried, coated with Meltilex, and measured in a microbeta counter. […]

The target in data set [1] is Cytochrome P450 isoenzyme 3A4 (Homo sapiens, UniProt P08684). As to the kind of experiment: Cytochrome P450 inhibition (Crespi et al.). The conditions noted are these: read-out: Inhibition of Cyp 450 3A4 (IC50); baculovirus/insect cell-expressed human isoenzyme 3A4. Here is the method: Cytochrome P450 Inhibition
The Cytochrome P450 inhibition was performed according to the publication of Crespi et al. (Anal. Biochem., 248, 188–190 (1997)) with use of the baculovirus/insect cell-expressed and human Cytochrome P450 isoenzyme (3A4).

A word on the IC50: it is the point on the concentration scale where inhibition reaches its midpoint. Consider `O=C(Nc1cccc(C(F)(F)F)c1)c1ccccc1NCc1cc[nH]c(=O)c1`, for which the IC50 on VEGFR II (KDR) came to 180 nM; in data set [1], 4.6 µM.
Take `O=C(Nc1cccc(C(F)(F)F)c1)c1ccccc1NCc1ccc(=O)[nH]c1`: the IC50 on VEGFR II (KDR) was 25 nM; in data set [1], 1.5 µM.
